## Antibody variant affinities, Ab-91 heavy chain, assay 2

All variants were tested on one target, the spike HR2 peptide PDVDLGDISGINAS (SARS-CoV-2).

Parent: Ab-91, a human scFv built as VL, three GGGGS repeats, VH. Only the CDRs of the heavy chain vary.
VL: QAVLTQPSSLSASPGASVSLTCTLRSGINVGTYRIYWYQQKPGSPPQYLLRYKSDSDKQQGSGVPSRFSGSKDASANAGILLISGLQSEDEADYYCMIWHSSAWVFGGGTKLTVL
VH: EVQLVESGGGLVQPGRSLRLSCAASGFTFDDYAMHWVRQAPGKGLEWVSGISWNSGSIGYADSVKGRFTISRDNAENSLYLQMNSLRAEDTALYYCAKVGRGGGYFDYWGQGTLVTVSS

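Library AAYL51 holds single substitutions and randomly drawn double and triple substitutions in the CDRs. Affinity was read by AlphaSeq, a pooled yeast mating assay with surface-displayed partners. The frequency of each diploid, read from paired DNA barcodes, reflects how well the two displayed proteins bind. Read counts were normalised to the haploid input and turned into Kd by a linear fit to BCL2-family pairs of known affinity, for each replicate. Mating was done three times.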

Positions count from residue 1 of the parent VH; F29Y puts Y in place of F. Numbers give log10(Kd / nM), so 0 is 1 nM and 3 is 1 µM. Smaller is tighter. The mean shown is taken over the replicates in which the pair was detected. "not detected" means that the variant was in the library but no mating with the target was seen in any replicate; the authors take this as a sign of poor binding, and no number exists.

mean log10 Kd (nM)	replicates with signal	changes
4.74	3/3	F29Y/S57M/D62H
5.06	2/3	M34V/R101N/G102P
not detected	0/3	S52L/S57G/V64A
3.60	1/3	F27M/G50P/G59C
3.71	1/3	G26D/F29S/Y60F
4.24	3/3	Y32D/N54H/S63V
5.67	3/3	I58C/Y60D/Y108D
not detected	0/3	F29D/G50M
not detected	0/3	F27C/H35F
4.05	1/3	F29Q/Y105R/D107C
2.91	3/3	S52A/S55D/G104F
5.78	1/3	A33R/H35K/K65L
not detected	0/3	M34C/G102L/Y105E
not detected	0/3	G26L/A33S/H35D
not detected	0/3	S52E/R101A/G104F
6.00	2/3	Y32V/A33R/G56H
not detected	0/3	I51P/D62V/D107P
3.10	2/3	T28L/V64W
3.28	1/3	D30I/I51W/S57E
4.47	1/3	G26D/V99Y/G100L
4.96	3/3	I51D/S63G/G100P
not detected	0/3	S52G/K65D/G100M
not detected	0/3	D31G/G56C/S63V
not detected	0/3	I51N/G104I/Y105F
4.62	2/3	K65C/R101F/G104T
4.00	1/3	G50C/I51L/D62C
not detected	0/3	F27H/D62C/G100K
4.51	3/3	F27R/G59W/Y108S
4.06	1/3	F27Q/S52A/A61D
not detected	0/3	D30S/V99E/R101N
not detected	0/3	I58V/R101I/G103E
not detected	0/3	Y32S/V99F/R101K
not detected	0/3	F29N/N54L/D107C
not detected	0/3	I51H/N54G/G100K
not detected	0/3	T28V/Y32P/Y60C
4.63	1/3	N54A/V99N/G103Q
5.32	1/3	F27S/G59N/K65S
1.95	3/3	D31S/Y105T/D107L
4.48	2/3	G59E/V64G/G100I
not detected	0/3	G26V/S52E/Y108T
4.93	3/3	Y32D/H35A/W53P
5.08	1/3	D31R/A33Q/K65Q
6.08	2/3	S63N/G100F/Y108T
4.24	1/3	D30S/Y60Q
not detected	0/3	H35Q/S57V/F106I
not detected	0/3	A33I/G103P/F106H
not detected	0/3	V64E/R101Y/Y108G
4.34	3/3	Y32W/V64I/F106C
not detected	0/3	I58E/S63Y/G104A
not detected	0/3	A33E/I51G/G100H
4.01	1/3	G103S/Y105W
1.11	3/3	T28V/N54D/F106Y
3.84	1/3	H35G/W53K/Y105P
2.79	2/3	D30L/S63W/V64Y
4.66	3/3	G56E/Y60S/A61E
not detected	0/3	M34Q/Y60R/G103C
4.08	3/3	A61V/G103W
3.28	3/3	W53Y/N54M
not detected	0/3	F27C/K65R/Y105I
4.29	2/3	S55G/G59W/V64A
not detected	0/3	G26Q/S52N/V99T
4.43	1/3	G50Q/A61P/V64S
4.86	2/3	M34Y/G56A/Y108F
2.35	3/3	I51V/R101C/G103S
4.99	2/3	F29T/R101Y/G102N
0.10	3/3	D31H/A33G/G56Q
0.90	3/3	D31T/I58A/G102L
5.33	1/3	H35G/V64I/K65D
not detected	0/3	G26C/G50H/Y105R
3.65	1/3	T28Y/S57H/D107G
2.18	2/3	I51V/S52N/K65Y
not detected	0/3	F27L/I51V/F106C
3.67	1/3	M34F/S55M/S57M
4.76	1/3	A33K/G50C/I58Y
not detected	0/3	M34I/I51W/D62V

In this assay the parent's reference entry averaged 1.86; its copy inside this library read 0.88. Background: pairings of library AAYL51 with three empty control strains gave a value in 21% of cases (median 4.54, 5th percentile 3.26). Values in that range, when seen in few replicates, are hard to tell from nonspecific mating.

Data: MIT Lincoln Laboratory AlphaSeq set, Engelhart et al. 2022, doi:10.1038/s41597-022-01779-4, as distributed in FLAb.